The record followed here is patent US8883833B2, “Substituted benzoazole PDE4 inhibitors for treating inflammatory, cardiovascular and CNS disorders” (Decode Genetics EHF, priority 2007, dated 2014).

By UniProt entry, the sequences of proteins in these tests, tags left out.
UniProt Q08499, whole entry: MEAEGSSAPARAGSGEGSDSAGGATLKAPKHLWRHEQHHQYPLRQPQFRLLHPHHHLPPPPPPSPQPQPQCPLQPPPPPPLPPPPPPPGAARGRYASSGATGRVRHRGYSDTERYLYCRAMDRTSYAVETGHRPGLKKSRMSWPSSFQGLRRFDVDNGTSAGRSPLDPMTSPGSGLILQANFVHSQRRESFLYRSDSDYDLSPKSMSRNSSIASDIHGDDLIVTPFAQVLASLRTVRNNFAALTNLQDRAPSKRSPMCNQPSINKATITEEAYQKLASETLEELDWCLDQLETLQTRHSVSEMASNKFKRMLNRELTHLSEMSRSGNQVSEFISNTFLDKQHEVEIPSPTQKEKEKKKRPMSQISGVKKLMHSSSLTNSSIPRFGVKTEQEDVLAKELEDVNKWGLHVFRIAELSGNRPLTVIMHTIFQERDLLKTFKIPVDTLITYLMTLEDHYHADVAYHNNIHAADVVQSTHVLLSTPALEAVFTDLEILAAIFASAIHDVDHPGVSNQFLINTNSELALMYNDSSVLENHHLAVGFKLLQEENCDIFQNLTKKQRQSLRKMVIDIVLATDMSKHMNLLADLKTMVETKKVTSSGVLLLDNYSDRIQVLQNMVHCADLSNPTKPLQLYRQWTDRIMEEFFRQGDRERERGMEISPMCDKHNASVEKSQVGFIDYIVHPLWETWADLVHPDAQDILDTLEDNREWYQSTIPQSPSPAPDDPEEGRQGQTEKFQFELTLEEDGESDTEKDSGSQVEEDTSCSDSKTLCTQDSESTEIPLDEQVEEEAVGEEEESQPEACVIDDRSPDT
UniProt Q07343, whole entry: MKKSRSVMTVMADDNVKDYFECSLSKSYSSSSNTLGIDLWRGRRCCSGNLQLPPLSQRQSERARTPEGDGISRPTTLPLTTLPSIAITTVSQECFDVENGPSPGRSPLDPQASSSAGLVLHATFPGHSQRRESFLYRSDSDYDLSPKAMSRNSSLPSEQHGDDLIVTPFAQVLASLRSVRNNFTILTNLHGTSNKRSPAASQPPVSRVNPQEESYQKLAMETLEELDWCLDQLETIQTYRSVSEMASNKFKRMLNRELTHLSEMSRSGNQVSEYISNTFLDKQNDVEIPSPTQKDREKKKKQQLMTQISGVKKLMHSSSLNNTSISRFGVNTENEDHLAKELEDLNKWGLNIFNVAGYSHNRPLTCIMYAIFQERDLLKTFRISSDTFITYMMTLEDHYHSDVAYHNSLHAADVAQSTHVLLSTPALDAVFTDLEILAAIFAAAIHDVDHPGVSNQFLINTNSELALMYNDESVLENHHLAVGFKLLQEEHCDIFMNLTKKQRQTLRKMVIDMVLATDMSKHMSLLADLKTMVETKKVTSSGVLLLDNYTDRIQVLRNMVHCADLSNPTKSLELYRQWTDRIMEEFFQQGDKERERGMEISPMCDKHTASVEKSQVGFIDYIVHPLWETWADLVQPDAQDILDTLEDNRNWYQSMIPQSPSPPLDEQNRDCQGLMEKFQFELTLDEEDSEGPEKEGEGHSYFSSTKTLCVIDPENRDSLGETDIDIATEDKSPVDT

In experiment [1] the target is human PDE4D isozyme (Homo sapiens, UniProt Q08499). The experiment is described as follows: IC50 for human PDE4D isozyme (Table 4). The class given is biochemical. The conditions noted are these: read-out: IC50 for human PDE4D isozyme, hPDE4D; tested form: hydrochloride. The protocol: (§1) In-vitro assay for PDE4 enzymes. The in-vitro activity of PDE4 enzymes and the in-vitro potency of therapeutic agents described in the present invention was measured using a real-time, enzyme-coupled spectrophotometric assay. By using three different coupling enzymes, the product of the PDE4 reaction is coupled to the oxidation of the reduced form β-nicotinamide adenine dinucleotide (NADH), which dissipation can be monitored spectrophotmetrically at […]. Assay description. Buffer A containing 50 mM Tris, pH 8.0, 16 mM MgCl2 and 80 mM KCl is prepared and stored at room temperature. Buffer B containing 50 mM Tris, pH 8.0 is prepared and stored at toom temperature. Stock solutions of the following reagents are prepared in Buffer B and stored at −20° C.: Adenosine-5′-triphosphate (ATP), cyclic adenosine-5′-monophosphate (cAMP), phosphoenolpyruvate (PEP) and NADH. An assay mix is prepared by mixing Buffer A, […] (TCEP), ATP, PEP, NADH, myokinase (MK), pyruvate kinase (PK), lactate dehydroganese (LDH) and PDE4 to a final volume of 20 mL, which is enough for a single 96-well assay plate. […] Reaction progress curves are monitored in a plate reader capable of measuring light absorbance at 340 nm. A decrease in light absorbance at 340 nm is due to oxidation of NADH. […] Reaction rates are determined from the slopes of the linear portions of the progress curves. […]

In experiment [2] the target is human PDE4B isozyme (Homo sapiens, UniProt Q07343). Put plainly: IC50 for human PDE4B isozyme (Table 5). The class given is biochemical. The conditions noted are these: read-out: IC50 for human PDE4B isozyme, hPDE4B; tested form: hydrochloride. As to the method: as §1

Where only a bound is given, the exact number is not on record here.

Turning to `NC1CCN(Cc2cc3scnc3c(-c3cccc(Cl)c3)c2F)CC1`, the IC50 – broadly, the concentration that gives 50% inhibition – in experiment [1] was below 5 µM; in experiment [2] it was 5 to 20 µM.
